Laboratory results: patent publication US11925655B2, “FAP-activated therapeutic agents, and uses related thereto” (Bach Biosciences, LLC, priority 2014, dated 2024)

Molecular target: T1, FAP (Homo sapiens, UniProt Q12884)
T1 sequence (Q12884 1-760): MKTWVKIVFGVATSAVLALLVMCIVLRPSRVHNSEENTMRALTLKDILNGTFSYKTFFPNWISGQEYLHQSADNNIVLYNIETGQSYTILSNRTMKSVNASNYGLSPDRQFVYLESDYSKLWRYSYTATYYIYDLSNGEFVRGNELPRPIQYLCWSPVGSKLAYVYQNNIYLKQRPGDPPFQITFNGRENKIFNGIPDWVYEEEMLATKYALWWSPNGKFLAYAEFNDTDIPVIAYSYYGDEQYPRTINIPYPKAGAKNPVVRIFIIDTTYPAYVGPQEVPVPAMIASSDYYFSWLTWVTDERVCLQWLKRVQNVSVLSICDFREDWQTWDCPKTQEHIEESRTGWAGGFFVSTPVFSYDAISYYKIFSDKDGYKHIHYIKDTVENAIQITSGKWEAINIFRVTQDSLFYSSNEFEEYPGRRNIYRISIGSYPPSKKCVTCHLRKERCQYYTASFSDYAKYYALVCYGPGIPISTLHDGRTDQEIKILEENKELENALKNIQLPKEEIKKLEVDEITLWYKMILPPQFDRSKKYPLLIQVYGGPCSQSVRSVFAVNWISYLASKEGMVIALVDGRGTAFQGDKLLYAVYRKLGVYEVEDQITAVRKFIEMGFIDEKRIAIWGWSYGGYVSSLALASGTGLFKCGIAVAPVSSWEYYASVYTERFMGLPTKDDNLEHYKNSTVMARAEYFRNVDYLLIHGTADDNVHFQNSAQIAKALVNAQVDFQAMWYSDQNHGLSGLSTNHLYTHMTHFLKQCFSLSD
Test: Rate of recombinant FAP activity on doxorubicin prodrugs
Settings: 37° C., 24 hours

## COc1cccc2c1C(=O)c1c(O)c3c(c(O)c1C2=O)C[C@@](O)(C(=O)CO)C[C@@H]3O[C@H]1C[C@H](NC(=O)[C@@H]2CCCN2C(=O)[C@@H](C)NC(=O)c2ccncc2)[C@H](O)[C@H](C)O1 [Compound 3099DOX]
  rate of yielding free doxorubicin versus z-GP-DOX or 3996DOX: significantly faster
